Data reported in ChEMBL document CHEMBL1127807 (J Med Chem, 1994).

The chains behind the UniProt entries cited, without tags or fusion partners. Where a name states a change or a piece, a line headed by the entry shows the natural chain unless it says otherwise.
UniProt P41145: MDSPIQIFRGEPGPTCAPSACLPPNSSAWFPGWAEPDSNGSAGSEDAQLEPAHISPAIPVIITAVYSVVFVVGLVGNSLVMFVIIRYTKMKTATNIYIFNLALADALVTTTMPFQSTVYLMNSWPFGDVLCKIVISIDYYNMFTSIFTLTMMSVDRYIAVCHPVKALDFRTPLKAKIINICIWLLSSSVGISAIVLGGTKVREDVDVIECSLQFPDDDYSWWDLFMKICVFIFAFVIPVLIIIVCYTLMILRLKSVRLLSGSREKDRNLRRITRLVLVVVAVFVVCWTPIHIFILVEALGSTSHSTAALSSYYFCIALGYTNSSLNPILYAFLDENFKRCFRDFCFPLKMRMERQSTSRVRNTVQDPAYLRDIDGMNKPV
UniProt P41143: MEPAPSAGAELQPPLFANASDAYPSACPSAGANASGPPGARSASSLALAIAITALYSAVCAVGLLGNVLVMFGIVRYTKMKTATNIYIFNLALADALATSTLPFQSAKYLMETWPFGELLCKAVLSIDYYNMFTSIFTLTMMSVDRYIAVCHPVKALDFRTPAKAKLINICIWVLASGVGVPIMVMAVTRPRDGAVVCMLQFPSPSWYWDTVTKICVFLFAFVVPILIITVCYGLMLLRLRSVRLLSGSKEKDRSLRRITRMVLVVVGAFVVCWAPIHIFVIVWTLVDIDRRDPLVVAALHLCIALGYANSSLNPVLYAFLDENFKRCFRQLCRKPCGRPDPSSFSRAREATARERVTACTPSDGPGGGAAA
UniProt P35372: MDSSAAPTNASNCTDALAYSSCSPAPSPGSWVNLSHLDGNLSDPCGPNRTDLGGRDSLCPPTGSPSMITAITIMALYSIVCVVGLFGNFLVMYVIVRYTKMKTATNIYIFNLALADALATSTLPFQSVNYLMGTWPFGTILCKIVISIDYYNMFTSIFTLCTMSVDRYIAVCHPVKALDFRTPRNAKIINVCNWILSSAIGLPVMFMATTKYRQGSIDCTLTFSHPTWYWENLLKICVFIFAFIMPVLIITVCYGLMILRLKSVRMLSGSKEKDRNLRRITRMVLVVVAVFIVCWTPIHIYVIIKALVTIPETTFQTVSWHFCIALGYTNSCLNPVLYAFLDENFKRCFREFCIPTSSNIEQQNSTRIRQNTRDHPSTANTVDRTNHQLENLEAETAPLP

Biological target: Opioid receptors; mu/kappa/delta (Homo sapiens, UniProt P41145+P41143+P35372)
Test: Tested for the binding affinity against the opioid receptor in guinea pig brain using [3H]bremazocine
Parameters: species or system Cavia porcellus
Settings: target entry is the homologue from another species

SMILES | IC50 [nM]
Oc1ccc2c3c1O[C@H]1[C@H](O)CC[C@@]4(O)[C@@H](C2)N(CC2CC2)CC[C@]314 (stereo in doubt; 6) | 8.3
Oc1ccc2c3c1O[C@H]1[C@H](O)CC[C@@]4(O)[C@@H](C2)N(CC2CC2)CC[C@]314 (stereo in doubt; 7) | 6
